Three molecules from ChEMBL document CHEMBL1649412, “Discovery and SAR of 5-(3-chlorophenylamino)benzo[c][2,6]naphthyridine-8-carboxylic acid (CX-4945), the first clinical stage inhibitor of protein kinase CK2 for the treatment of cancer” (J Med Chem, 2011) can be followed below.

Chains of the proteins cited; added tags and fusions are not shown.
UniProt P19784, whole entry: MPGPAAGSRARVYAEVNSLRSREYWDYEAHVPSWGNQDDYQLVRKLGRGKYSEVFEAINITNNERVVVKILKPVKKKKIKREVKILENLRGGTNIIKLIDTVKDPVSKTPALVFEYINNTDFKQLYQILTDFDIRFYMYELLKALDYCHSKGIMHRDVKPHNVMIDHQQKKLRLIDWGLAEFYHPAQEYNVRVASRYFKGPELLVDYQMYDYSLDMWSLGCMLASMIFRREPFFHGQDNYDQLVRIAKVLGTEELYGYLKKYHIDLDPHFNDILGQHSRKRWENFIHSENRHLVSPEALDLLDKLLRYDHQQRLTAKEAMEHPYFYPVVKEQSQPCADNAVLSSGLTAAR
UniProt P67870, whole entry: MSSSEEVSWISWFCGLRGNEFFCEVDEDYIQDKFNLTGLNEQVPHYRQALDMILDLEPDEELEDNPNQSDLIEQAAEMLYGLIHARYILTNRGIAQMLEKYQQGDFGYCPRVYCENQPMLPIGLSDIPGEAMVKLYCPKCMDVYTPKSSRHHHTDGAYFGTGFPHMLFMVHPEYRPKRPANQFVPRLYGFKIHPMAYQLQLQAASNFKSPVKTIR
UniProt P68400, whole entry: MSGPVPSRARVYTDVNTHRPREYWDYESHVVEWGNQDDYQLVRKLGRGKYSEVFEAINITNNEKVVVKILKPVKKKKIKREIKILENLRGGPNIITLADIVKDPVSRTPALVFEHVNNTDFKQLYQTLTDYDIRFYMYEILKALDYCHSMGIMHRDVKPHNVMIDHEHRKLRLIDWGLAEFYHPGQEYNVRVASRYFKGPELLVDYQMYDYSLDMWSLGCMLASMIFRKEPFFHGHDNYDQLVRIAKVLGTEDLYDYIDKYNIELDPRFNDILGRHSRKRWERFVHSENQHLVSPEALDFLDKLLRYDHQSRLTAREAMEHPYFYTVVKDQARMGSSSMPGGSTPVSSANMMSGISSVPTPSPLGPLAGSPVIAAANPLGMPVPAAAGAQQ

The target in this assay is Casein kinase II (Homo sapiens, UniProt P19784+P67870+P68400). Nature of the assay: Inhibition of human recombinant CK2 assessed as inhibition of [gamma33P]ATP incorporation into substrate by […]. The format is protein-complex assay.
`NC(=O)c1ccc2c(c1)[nH]c(=O)c1ccsc12`: the IC50 is above 25 µM. `COC(=O)c1ccc2c(c1)nc(Nc1cccc(Cl)c1)c1ccncc12`: the IC50 is above 0.5 µM. `O=c1[nH]c2cc(CO)ccc2c2sccc12`: the IC50 is above 25 µM.

A word on the IC50: it is the midpoint of a concentration-inhibition curve.
